Data published in publication PMC4963197, “Phosphorylation acts positively and negatively to regulate MRTF-A subcellular localisation and activity” (eLife, 2016).

Tests used:
[1] = molecular target: MRTF-A(67–199) S98D (mouse); assay: SEC; Superdex 200 in 20 mM Tris (pH 8), 100 mM NaCl, 3 mM MgCl2, 0.2 mM EGTA, 0.3 mM TCEP, 5% (v/v) glycerol, calibrated with globular proteins of known molecular weight; apparent stoichiometry
G-actin = G-actin (UniProt P68135); assay: FP; LatB-actin

reduction of the stoichiometry of G-actin binding against wild-type MRTF-A(67–199) [1] | Substance | Kd (G-actin) [nM]
1 | G-actin (from UniProt P68135 1-377) (natural protein) | 
 | RPEL1 (62-104) S98A | 910
